# Bioassay records from PubChem BioAssay.
# ERp5 inh = inhibitors of human ERp5. inhibition, % at 9.99 µM. ERp5 insulin aggregation, absorbance 650 nm, 90 min. 350,000 compounds, 0.05% hits. AID 651711;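 active means mean replicate inhibition above about 25%, with every replicate also reaching it, limit read from the data, passing the limit was not always enough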
# UUG fidelity = alters start codon recognition fidelity in yeast; S. cerevisiae UUG-firefly luciferase reporter, luminescence/redox ratio; activity score, % at 18.7 µM; actives 0.13% (n = 350,000); AID 602363;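 active = replicate mean at a twofold rise or more, about +100% in these data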;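 also: firefly luciferase made from a UUG start codon reports start codon fidelity; reporter light over untreated wells divided by growth signal over untreated wells; some hits fall short of that in this replicate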
# S100A4 MyoIIA = inhibitors of human S100A4 binding to myosin IIA peptide | 360,000 compounds, 0.14% hits | S100A4/TAMRA-MyoIIA peptide fluorescence polarization | inhibition, % at 10.7 µM | AID 652163;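 active means mean inhibition of at least 70% across replicates, with every replicate also reaching that level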
#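 Material: S100A4 monomer protein | Medium: HEPES pH 7.2 with CaCl2, KCl, NaCl, DTT, Triton | Reagent: Labelled myosin peptide probe, 5 nM | Doses: One dose per compound | Times: 5 min incubation before reading | Benchmarks: Neutral control DMSO, positive control TFP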
# SIRT5 inh = blocks human SIRT5 desuccinylation of peptide; Purified SirT5, succinyl-peptide AMC, trypsin-coupled fluorescence; inhibition, % at 15 µM; 330,000 compounds, 1.1% hits; AID 652115; in the data active means inhibition above about 15%
# FGF22 binding = shifts melting point of recombinant human FGF22 | Q9HCT0 | recombinant FGF22 thermal shift, SYPRO orange fluorescence; percent of sucrose octasulfate shift, DMSO zero | activity (Tm shift, normalised), % at 9.99 µM | 340,000 compounds, 1.5% hits;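 active means mean Tm shift, scaled 0 neutral to 100 positive control, at about 1.3% or above, every replicate too, limit read from the data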
# PDI inh = PDI (human) enzyme inhibition. P07237. PDI insulin aggregation turbidity, A650, 90 min. inhibition, % at 10 µM. 350,000 compounds, 0.052% hits;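 active means mean inhibition across replicates of 30% or more, whatever share of single replicates reach that level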
# The depositor's hits bear a star; . = not tested or not shown. Shown are actives, neighbours in structure and some others; about 2.2% of the full set was active somewhere.
SMILES,ERp5 inh,UUG fidelity,S100A4 MyoIIA,SIRT5 inh,FGF22 binding,PDI inh
COc1ccc2c3c([nH]c2c1)[C@@H](CO)N(C(=O)Cc1ccccn1)CC31CCN(Cc2ccccn2)CC1,-10,.,5,.,0,.
O=C(Nc1cccc(Br)c1)c1ccc(CSc2ccccc2)cc1,-3,-14,15,24*,0,-1
CCOC(=O)c1ccc(NC(=O)c2ccco2)cc1,3,-10,1,17*,0,7
Nc1ccc(NC(=O)c2ccco2)c(Cl)c1,7,-11,-10,-2,44*,-3
O=C(Nc1cccnc1)c1ccc(CSc2ccccc2)cc1,-1,.,-8,0,0,2
CCOC(=O)c1ccc(NC(=O)c2ccc(NC(=O)c3ccccc3)cc2)cc1,.,-21,.,.,.,-14
CCOC(=O)c1ccc(NC(=O)c2cc3c(s2)CCC3)cc1,3,.,-2,-4,45*,-4
C[C@@H]1CN([C@@H](C)CO)C(=O)c2cc(Br)cnc2O[C@@H]1CN(C)CC1CCCC1,3,5,-14,-5,0,.
COCCNC(=O)c1cc2c(c(-c3cccc(C4=CCCC4)c3)n1)[C@@H](CCO)N([S@](=O)C(C)(C)C)C2,-4,.,-1,11,1,.
O=C(COc1ccccc1)Nc1c(Cl)ccc2nsnc12,-3,-18,1,2,0,1
C/C(=N/NC(=O)c1ccco1)c1cccc(NC(=O)c2ccc(C)o2)c1,.,-24,.,.,.,-5
O=C(Nc1c(Cl)ccc2nsnc12)c1ccco1,4,11,3,2,44*,-10
C/C(=N/NC(=O)c1ccco1)c1cccc(NC(=O)c2ccc(C)s2)c1,3,-7,-2,0,1.5*,-17
CCOc1cccc(C(=O)Nc2cccc(NC(=O)c3ccco3)c2)c1,1,-10,2,6,1.5*,2
CS(=O)(=O)N1CC2(C1)[C@@H](c1ccccc1)[C@H](CO)N2C(=O)C1CCC1,-2,.,-8,-1,.,.
CCn1cc(CN2CCc3c([nH]c4ccccc34)C2c2cccc(OC)c2OC)c(C)n1 (stereo unspecified),-1,-5,0,8,44*,6
CCN1CCN(C(=O)/C(C#N)=C/c2ccc(OC(F)F)cc2)CC1,-4,-10,-1,18*,42,-4
C[N+]1(CC(=O)OCCCc2ccccc2)CCCC1,4,.,3,0,0,-4
O=C(CN1CCCC1)OCCCc1ccccc1,-3,-13,4,1,44*,6
O=C1N[C@@H](Cc2ccccc2)COCc2cn(nn2)CC[C@H]1Cc1ccccc1,4,.,9,-4,0,.

# The closing 2 entries of the part before open the next one:
SMILES,ERp5 inh,UUG fidelity,S100A4 MyoIIA,SIRT5 inh,FGF22 binding,PDI inh
O=C(CN1CCCC1)OCCCc1ccccc1,-3,-13,4,1,44*,6
O=C1N[C@@H](Cc2ccccc2)COCc2cn(nn2)CC[C@H]1Cc1ccccc1,4,.,9,-4,0,.
CNC(=O)C[C@@H]1CC[C@H]2[C@@H](COc3ccc(NC(=O)C4CC4)cc3C(=O)N2C)O1,.,6,.,.,0,.
CC1(C)OC(=O)C=C[C@]2(C)[C@H]3CC[C@@]4(C)[C@H](c5ccoc5)OC(=O)[C@H]5O[C@]54[C@]3(C)C(=O)C[C@@H]12,6,-10,1,.,17*,-5
CC(C)c1cn(CC[C@@H]2CC[C@H](NC(=O)C3CCCC3)[C@@H](CO)O2)nn1,-1,5,4,11,0,.
O=C(c1cc([N+](=O)[O-])ccc1N1CCOCC1)N1CCOCC1,1,-11,-2,2,43*,9
CC1=Nc2cc(C(=O)NCCCOC(C)C)ccc2Sc2ccc(C)cc21,-1,-4,-7,-5,0,-1
CC1=Nc2cc(C(=O)NCCCOC(C)C)ccc2Sc2ccccc21,-1,-7,-1,-3,43*,5
COc1ccc(S(=O)(=O)N(C)C[C@H]2OCCCC[C@H](C)Oc3ccc(NC(=O)C4CCCCC4)cc3C(=O)N([C@@H](C)CO)C[C@H]2C)cc1,-4,-1,1,6,-1,.
CC(C)NC(=O)N[C@H]1C=C[C@H](CC(=O)N2CCCCC2)O[C@H]1CO,-1,-17,2,6,0,.
CO[C@@H]1CN(C)C(=O)c2ccc(NC(=O)c3ccc4c(c3)OCO4)cc2OC[C@H](C)N(CCC(F)(F)F)C[C@H]1C,-2,.,-2,16*,-1,.
CO[C@H]1CN(C)C(=O)c2cc(NC(C)=O)ccc2OC[C@@H](C)N(CCC(F)(F)F)C[C@H]1C,1,3,2,16*,0,.

# Sorted by the number under ERp5 inh (descending): three from the list above
Compound	ERp5 inh
CC1(C)OC(=O)C=C[C@]2(C)[C@H]3CC[C@@]4(C)[C@H](c5ccoc5)OC(=O)[C@H]5O[C@]54[C@]3(C)C(=O)C[C@@H]12	6
O=C(c1cc([N+](=O)[O-])ccc1N1CCOCC1)N1CCOCC1	1
CC(C)NC(=O)N[C@H]1C=C[C@H](CC(=O)N2CCCCC2)O[C@H]1CO	-1
